Assay results as given in article PMC6419574 (Bioorganic & Medicinal Chemistry Letters, 2019).

Biological target: fascin (Homo sapiens, UniProt Q16658)

SMILES | increase in binding affinity compared to 3 | improvement of fascin affinity over truncated compound 25 [fold] | weaker binding than the parent isoquinolinone [fold]
Cn1cc(NC(=O)c2cn(Cc3ccc(F)cc3)c(=O)c3ccccc23)cn1 [Compound 4, 2-(4-fluorobenzyl)-N-(1-methyl-1H-pyrazol-4-yl)-1-oxo-1,2-dihydroisoquinoline-4-carboxamide] | ≈ 14 fold | – | –
Cn1cc(NC(=O)c2cn(Cc3ccc(Cl)c(Cl)c3)c(=O)c3cn[nH]c23)cn1 [Compound 19, 5-(3,4-dichlorobenzyl)-N-(1-methyl-1H-pyrazol-4-yl)-4-oxo-4,5-dihydro-1H-pyrazolo[4,3-c]pyridine-7-carboxamide] | – | > 50 | 7
